The target of one experiment is D(3) dopamine receptor (Homo sapiens, UniProt P35462). Description: Antagonist activity at human dopamine D3 receptor expressed in CHO-K1 cells assessed as inhibition of dopamine-induced recruitment of beta-arrestin-2 at 10 uM after 90 mins by beta-galactosidase assay. It is filed as functional, cell-based.
Experiment [1] has as its target 5-hydroxytryptamine receptor 1A (Homo sapiens, UniProt P08908). Description: Agonist activity at 5HT1A receptor assessed as stimulation of [35S]GTPgammaS binding relative to control. It is filed as functional. Set-up: concentration or dose not given beside the values. In general terms: GTPγS resists hydrolysis and so accumulates on activated G proteins.
The species entered for the next experiment is Homo sapiens. Put plainly: Selectivity ratio Ki for human dopamine D2L receptor to Ki for human dopamine D3 receptor.

By UniProt entry, the sequences of proteins in these tests, tags left out.
UniProt P35462, whole entry: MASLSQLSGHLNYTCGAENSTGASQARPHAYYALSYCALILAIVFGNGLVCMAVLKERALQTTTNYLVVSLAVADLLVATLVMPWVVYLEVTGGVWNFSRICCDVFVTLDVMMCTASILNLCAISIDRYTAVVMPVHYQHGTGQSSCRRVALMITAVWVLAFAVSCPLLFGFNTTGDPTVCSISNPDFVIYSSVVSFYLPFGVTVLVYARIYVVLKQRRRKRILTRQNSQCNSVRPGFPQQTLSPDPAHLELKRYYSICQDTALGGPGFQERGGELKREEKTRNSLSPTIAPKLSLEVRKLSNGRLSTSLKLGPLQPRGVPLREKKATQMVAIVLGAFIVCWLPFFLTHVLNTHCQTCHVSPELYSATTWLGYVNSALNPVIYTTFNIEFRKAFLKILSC
UniProt P08908, whole entry: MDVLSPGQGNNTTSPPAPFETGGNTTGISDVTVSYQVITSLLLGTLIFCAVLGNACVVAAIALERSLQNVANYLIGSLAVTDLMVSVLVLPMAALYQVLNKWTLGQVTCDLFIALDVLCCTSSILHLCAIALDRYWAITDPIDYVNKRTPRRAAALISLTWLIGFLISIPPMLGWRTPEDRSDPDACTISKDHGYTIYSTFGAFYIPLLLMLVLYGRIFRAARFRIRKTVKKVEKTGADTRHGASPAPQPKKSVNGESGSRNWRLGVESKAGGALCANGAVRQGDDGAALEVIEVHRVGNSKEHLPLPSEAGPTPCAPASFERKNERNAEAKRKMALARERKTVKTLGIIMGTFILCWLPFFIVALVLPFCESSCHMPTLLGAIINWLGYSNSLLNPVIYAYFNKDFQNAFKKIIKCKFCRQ

As usually defined, the inhibition is the share of the control response that was lost under treatment. Turning to `O=C(NCCC(F)CN1CCN(c2cccc(Cl)c2Cl)CC1)c1ccc(-c2ccccn2)cc1` (stereo not drawn), on D(3) dopamine receptor, the inhibition was less than 50%. In addition, in experiment [1], the Activity came out at 123%. Besides, the Ratio Ki in the experiment filed under Homo sapiens worked out at 61.
